The nature of the data set: Animal biodistribution study (organ and tumor distribution of DOX). The class given is in vivo, Balb/c mice. The settings on record: 4T1 tumor mice, IV DOX 5 mg/kg, 24 h.

Each structure is given as a SMILES string.

For the compound `COc1cccc2c1C(=O)c1c(O)c3c(c(O)c1C2=O)C[C@@](O)(C(=O)CO)C[C@@H]3O[C@H]1C[C@H](N)[C@H](O)[C@H](C)O1` [Free DOX, doxorubicin], the DOX in brain worked out at 1.06 ± 0.02 ng/mg.

For the origin of these results see publication PMC7017074, “Krebs Cycle Intermediate-Modified Carbonate Apatite Nanoparticles Drastically Reduce Mouse Tumor Burden and Toxicity by Restricting Broad Tissue Distribution of Anticancer Drugs” (Cancers, 2020).
